Entries after “also recorded” stand apart in the source; their conditions may differ.
Assay: 4-week toxicity study with 4-week recovery in mice (incl. TK)

Structure (SMILES): COc1ccc(-c2c(-c3ccc(C#N)c(F)c3)nc(N3CCC(N)CC3)n(C)c2=O)cc1F [Compound A, 4-[2-(4-amino-piperidin-1-yl)-5-(3-fluoro-4-methoxy-phenyl)-1-methyl-6-oxo-1,6-dihydro-pyrimidin-4-yl]-2-fluoro-benzonitrile]
- animals sacrificed in moribund condition (45 mg base/kg/dose QD×5/week, TK subgroup): Five
- reversibility of findings (4-week treatment-free period): partial to complete reversibility
- Compound A-related adverse findings (4 weeks oral, 5, 15, 45 (QD×5/week) or 25 (QOD×3/week) mg base/kg/dose, dose as stated with each finding): Rough haircoat at ≥15 mg base/kg/dose; also recorded: Marked decreases in platelet and reticulocyte counts at 45 mg base/kg/dose; also recorded: Minimal to marked fibrosis in the medullary space of the sternum; also recorded: Minimal to moderate increase in periosteal, endosteal, and trabecular lamellar bone (hyperostosis); also recorded: Minimal to moderate myeloid hyperplasia in the bone marrow of the sternum at ≥15 mg base/kg/dose; also recorded: Moderate fibrosis in the femoral bone marrow at 45 mg base/kg/dose; also recorded: Minimal to marked depletion of marginal zone lymphocytes in the spleen

— patent US10328077B2 (CELGENE CORPORATION, priority 2016, dated 2019)
